How the values were obtained:
[1] = molecular target: T1, HCV replicase complex (membrane fraction of Huh-7 cells expressing HCV replicon) (Hepatitis C virus genotype 1b, UniProt Q9WMX2); conditions: test compound 10 μM
[2] = molecular target: T1, HCV replicase complex (membrane fraction of Huh-7 cells expressing HCV replicon); conditions: test compound 10 μM; remark: listed apart in the source
[3] = molecular target: HCV replication complexes isolated from a membrane fraction (Hepatitis C virus genotype 1b, UniProt Q9WMX2); conditions: inhibitor 100, 20 and 4 μM, 30° C., 2 hours

Protein sequences, listed by entry. Tags and fused reporters are not part of them. Residues count along the entry.
UniProt Q9WMX2, 2420-3010: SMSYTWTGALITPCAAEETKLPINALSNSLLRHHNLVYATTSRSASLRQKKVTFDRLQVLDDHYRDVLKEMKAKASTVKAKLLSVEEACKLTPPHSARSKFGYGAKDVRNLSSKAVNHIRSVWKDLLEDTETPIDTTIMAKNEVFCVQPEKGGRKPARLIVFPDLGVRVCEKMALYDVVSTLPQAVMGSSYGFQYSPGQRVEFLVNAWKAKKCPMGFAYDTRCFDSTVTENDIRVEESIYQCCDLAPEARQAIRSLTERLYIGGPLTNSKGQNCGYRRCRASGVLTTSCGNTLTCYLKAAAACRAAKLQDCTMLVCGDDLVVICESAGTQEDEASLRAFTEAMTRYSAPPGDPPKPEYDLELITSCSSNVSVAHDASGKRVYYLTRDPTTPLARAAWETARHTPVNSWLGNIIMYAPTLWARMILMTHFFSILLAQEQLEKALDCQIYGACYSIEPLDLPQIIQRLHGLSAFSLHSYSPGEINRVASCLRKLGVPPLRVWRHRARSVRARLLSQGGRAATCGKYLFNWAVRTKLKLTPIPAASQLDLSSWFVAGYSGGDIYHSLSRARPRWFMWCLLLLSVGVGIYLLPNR

SMILES: CC(C)CCn1c(=O)c(C2=NS(=O)(=O)c3ccccc3N2)c(O)c2ccccc21 [Test compound]
- Copies as % of samples with no test compound (no RNAse protection assay) [1]: 66%
- Reduction in total viral RNA synthesis with no RNAse protection [1]: less than half reduction
- Copy number after PCR with no RNAse protection assay ([1]; control without compound 46942): 31156
- Copies as % of samples with no test compound (with RNAse protection assay) [2]: 12%
- Reduction in the amount of newly initiated viral RNA synthesis after RNAse protection [2]: ~10 fold
- Copy number after PCR with RNAse protection assay ([2]; control without compound 137494): 16970
- Double-stranded RNA band (elongation of previously initiated RNAs) in autoradiogram [3]: remains
- Single-stranded RNA band (newly initiated RNAs) in autoradiogram [3]: disappears
